Results on 2 compounds are retold here after patent publication US20090241222A1, “TANDEM REAPEAT DNA CONSTRUCTS PRODUCING PROTEINS THAT ATTACK PLANT PATHOGENIC VIRUSES, FUNGI, AND BACTERIA BY DISRUPTING TRANSCRIPTION FACTORS ESSENTIAL FOR REPLICATION THEREOF IN PLANTS” (priority 2008, published 2009).

SMILES strings stand for the structures.

In this assay the target is Zn (HIV1-F1) zinc finger peptide (Human immunodeficiency virus type 1 group M subtype B, UniProt P03348).

On to `O=C(O)c1ccccn1` [picolinic acid, 2-pyridine carboxylic acid], for which the “binding to Zn (HIV1-F1) by NMR spectroscopy” value was “bind Zn (HIV1-F1) at a hydrophobic cleft”.

As to `CCCCc1ccc(C(=O)O)nc1` [fusaric acid, 5-butyl picolinic acid], the “binding to Zn (HIV1-F1) by NMR spectroscopy” value is “bind Zn (HIV1-F1) at a hydrophobic cleft”. The “titration monitored by one dimensional 1H NMR” value (peptide 1.63 mM, Zn2+ 2 mM) is “competitively binds both Zn^2− and the Zn^2+/Peptide complex”.
